Test: Inhibition of pig skin LOX using cadaverine hydrochloride as substrate preincubated for 20 mins followed by substrate addition and measured after 45 mins by horseradish peroxidase-coupled amplex red reagent-based fluorescence assay
Design: species or system Sus scrofa

IC50: 1000 to 1200 nM
Compound: NCc1ncc(S(=O)(=O)c2ccc3ccccc3c2)s1

From ChEMBL document CHEMBL4304744, “Anti-metastatic Inhibitors of Lysyl Oxidase (LOX): Design and Structure-Activity Relationships” (J Med Chem, 2019)
